{
  "source": "ChEMBL document CHEMBL4364256",
  "about": "“Design, synthesis and biological evaluation of antimicrobial diarylimine and -amine compounds targeting the interaction between the bacterial NusB and NusE proteins” (Eur J Med Chem, 2019)",
  "key": {"Staphylococcus aureus [1]": {"test_system": "Staphylococcus aureus", "settings": "USA300 ST8"}, "Staphylococcus aureus [2]": {"test_system": "Staphylococcus aureus", "settings": "W45 ST59"}, "Staphylococcus aureus [3]": {"test_system": "Staphylococcus aureus", "settings": "ATCC 25923"}, "Staphylococcus aureus [4]": {"test_system": "Staphylococcus aureus", "settings": "ATCC 29213"}, "Staphylococcus aureus [5]": {"test_system": "Staphylococcus aureus", "settings": "W48 ST217"}, "Staphylococcus aureus [6]": {"test_system": "Staphylococcus aureus", "settings": "W46 ST59"}, "[7]": {"test_system": "Enterobacter cloacae subsp. cloacae", "settings": "ATCC 13047"}},
  "data": [
    {"sequence": "GENTAMICIN", "values": [
      {"measurement": "MIC", "setting": "Staphylococcus aureus [1]", "result": 0.5, "unit": "µg/mL"},
      {"measurement": "MIC", "setting": "Staphylococcus aureus [2]", "result": 0.5, "unit": "µg/mL"},
      {"measurement": "MIC", "setting": "Staphylococcus aureus [3]", "result": "0.5 to 1", "unit": "µg/mL"},
      {"measurement": "MIC", "setting": "Staphylococcus aureus [4]", "result": "0.5 to 1", "unit": "µg/mL"},
      {"measurement": "MIC", "setting": "Staphylococcus aureus [5]", "result": 0.5, "unit": "µg/mL"},
      {"measurement": "MIC", "setting": "Staphylococcus aureus [6]", "result": 0.5, "unit": "µg/mL"},
      {"measurement": "MIC", "setting": "[7]", "result": 0.5, "unit": "µg/mL"}
    ]}
  ]
}
